The text below walks through data of patent publication US20090275732A1, “Agent for improving circulatory disorder” (priority 2005, published 2009).

Assay [1] deals with rat with obstructions in the bilateral common carotid arteries. Description: Effect on ischemic cerebral dysfunction due to decrease in cerebral blood flow (ischemic attacks, death). As to conditions: Fischer male rat, dose 3 mL/kg tail vein. Type of assay: in vivo. Here is the method: An experiment was performed on an effect of improving ischemic cerebral dysfunction caused by a decrease in a cerebral blood flow of a rat with obstructions in the bilateral common carotid arteries in the case of administration of rHSA-FecycP.
For each Fischer male rat (8-week-old), the bilateral common carotid arteries were ligated under ether light anesthesia to induce cerebral ischemia. rHSA-FecycP (1 and 3 mL/kg) or 5% rHSA (control, 3 mL/kg) was administered into the tail vein immediately after obstructions in the bilateral common carotid arteries, and observations were performed on the presence or absence of manifestation of ischemic attacks (paroxysmal jumping and convulsion) during 3.5 hours after completion of the obstructions and on the life or death during 24 hours after completion of the obstructions during wakefulness. The manifestation rate of the ischemic attacks (the number of manifestation cases/the number of use cases×100(%)) and death rate (the number of death cases/the number of use cases×100(%)) were used as indexes to examine the effect of the drug.

Another assay concerns rat isolated hearts. The experiment in a line: Ischemic cardiac dysfunction by slow perfusion in rat isolated hearts (Langendorff method). Conditions: whole course, slow perfusion ischemia and reperfusion; drug 0.2 mL/min for 60 minutes; n=7. The method, then: The heart of each Wister male rat (8- to 10-week-old) was removed under pentobarbital sodium anesthesia, and a cannula was inserted into the aorta in accordance with the Langendorff method to perfuse with a nutrition solution. In order to measure a heart function, i.e., the force of heart contraction, a balloon containing physiological saline was inserted into the left ventricle, and the resultant pressure waveform was analyzed to determine the end-diastolic pressure and maximum rising rate of the left ventricular pressure. As a nutrition solution, a Krebs-Henseleit solution (NaCl 118 mM, KCl 4.7 mM, KH2PO4 1.2 mM, MgSO4 1.2 mM, CaCl2 2.5 mM, NaHCO3 25 mM, glucose 11 mM, pH 7.4) aerated with a 95% O2-5% CO2 mixed gas and incubated at 37° C. was used, and the solution was perfused at a flow rate of 20 mL/min for 20 minutes to stabilize the state. […]
For each experiment group, at the respective time points from the start of slow perfusion to 120 minutes later, the end-diastolic pressure and maximum rising rate of the left ventricular pressure were measured.
Note that, for a normal control group (n=7), which was subjected to perfusion at a rate of 20 mL/min during the entire term of the experiment, the end-diastolic pressure and maximum rising rate of the left ventricular pressure were measured for comparison in the same way as above. […]

Assay [2] has as its system blood flow volume at the lower limb of blood-removed rats. The experiment in a line: Effect on rat model with hemorrhagic blood flow decrease (Laser Doppler blood flow imaging of lower limb). Type of assay: in vivo. As to conditions: Wister male rat, about 70% blood exchange with 5% rHSA then 30% blood removal; dose 30% of total blood volume into right femoral vein; 25 minutes after administration. Here is the method:
Effect on rat model with hemorrhagic blood flow decrease For each Wister male rat (8-week-old), blood removal was performed under sevoflurane inhalation anesthesia (introduction 2.0%, maintenance 1.5%) to decrease the blood flow volume. Removal of 2 mL of blood from the right common carotid artery and administration of 2 mL of 5% rHSA from the right femoral vein were repeated nine times to exchange about 70% of the total blood volume with 5% rHSA, and ten minutes later, 30% of the total blood volume was removed from the right common carotid artery. After completion of blood removal, rHSA-FecycP or 5% rHSA as a control was rapidly administered to the right femoral vein in an amount of 30% of the total blood volume. Note that the blood removal and administration were performed at a rate of 1 mL/minute. Before blood removal, immediately after completion of blood removal, and 25 minutes after completion of administration, blood flow volumes at the lower limb were noninvasively measured using a Laser Doppler blood flow imaging device (manufactured by Monte System Corporation, MoorLDI-LKII).

For “5% rHSA: recombinant human serum albumin, 5% solution, used as a control [reference compound]”, the “Manifestation rate of ischemic attacks” value in assay [1] (during 3.5 hours after obstruction) is reported as 80%. Moreover, the Death rate in assay [1] (during 24 hours after obstruction) was determined as 100%. Moreover, in the assay with rat isolated hearts, the “End-diastolic pressure of the left ventricular pressure” value is listed as “changed almost in the same way as the ischemia control group” and the “Maximum rising rate of the left ventricular pressure” value is “changed almost in the same way as the ischemia control group”. In addition, the “Blood flow volume at the lower limb” value in assay [2] is “did not recover and further decreased”.
